Measured values reported in PubChem BioAssay (NCATS).
Values joined by “and” are separate entries in the source; they are usually repeats but may differ in a detail not shown here. Equal values may be shown once. This is a selection; strong and weak results do not stand in their true shares. Records with an inconclusive call do not appear. Some structures show a salt or complex split into parts, the way the source records it. Active and inactive are the calls of the source. Unless noted, calls follow the shape of the dose curve; as a rule, active = well fitted curve in the direction sought with a large enough effect; inconclusive = small, poorly fitted or top-dose-only effect, or another doubt; inactive = no such curve, though single readings can be large; an effect the other way counts as inactive or inconclusive.

Sequences of proteins named here, by UniProt entry; tags and fusion partners are left off.
UniProt Q9R1A7, whole entry: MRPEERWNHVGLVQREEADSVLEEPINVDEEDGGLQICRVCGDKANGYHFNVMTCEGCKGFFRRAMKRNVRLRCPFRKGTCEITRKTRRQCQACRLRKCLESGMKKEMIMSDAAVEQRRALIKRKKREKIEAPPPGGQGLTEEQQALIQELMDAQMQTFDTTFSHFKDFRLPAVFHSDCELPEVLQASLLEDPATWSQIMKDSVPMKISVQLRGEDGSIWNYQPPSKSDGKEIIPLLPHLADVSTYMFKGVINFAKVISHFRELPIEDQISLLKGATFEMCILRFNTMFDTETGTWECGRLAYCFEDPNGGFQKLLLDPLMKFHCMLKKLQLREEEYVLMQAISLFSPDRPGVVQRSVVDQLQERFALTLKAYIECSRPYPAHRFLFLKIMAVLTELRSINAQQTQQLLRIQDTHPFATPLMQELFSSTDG

Assays:
[1] = target: Nuclear receptor subfamily 1 group I member 2 (Rattus norvegicus) (UniProt Q9R1A7); assay: qHTS assay for small molecule activators of the rat pregnane X receptor (rPXR) signaling pathway (AID 651751; call rule not given here; also: 0% is about no effect); settings: rPXR reporter cells, luciferase (One-Glo), 24 h
[2] = Drug repurposing screens with cells derived from glioblastoma tumor samples (AID 1345199); settings: GBM patient neurospheres viability, ATP luminescence, 48 h; Potency: tumour line A; also: % is scaled to controls: 0 for no effect and ±100 for the full control effect; nearly all actives have a fitted effect of over 40% in size
Procedure, shortened: (§1)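 Four patient lines of CD133+ GBM neurospheres were screened at several concentrations; hits were retested in those lines plus three slower-growing GBM lines, using 48-hour treatment and ATP-based viability.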

[3] = tested on: astro; assay: as above; settings: viability, ATP luminescence, 48 h
Procedure, shortened: as §1

[4] = tested on: C33A; assay: Primary qHTS to identify gynecologic anti-cancer compounds using libraries of approved drugs and bioactive compounds (AID 1345084); settings: Gynecologic cancer cell panel viability, ATPlite luminescence, 48 h; at 57.5 µM (top of the series) unless noted; also: % is scaled to controls: 0 for no effect and ±100 for the full control effect; nearly all actives have a fitted effect of over 55% in size
Procedure, shortened: (§2)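 In this quantitative HTS, cell killing is estimated from loss of ATP-dependent luciferase light. Cells see five compound concentrations over a 48 h exposure.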

[5] = tested on: CAOV3; assay: as above; settings: Gynecologic cancer cell panel viability, ATPlite luminescence, 48 h; at 57.5 µM (top of the series) unless noted
Procedure, shortened: as §2

[6] = tested on: CASKI; assay: as above; settings: Gynecologic cancer cell panel viability, ATPlite luminescence, 48 h; at 57.5 µM (top of the series) unless noted
Procedure, shortened: as §2

[7] = tested on: Es-2; assay: as above; settings: Gynecologic cancer cell panel viability, ATPlite luminescence, 48 h; at 57.5 µM (top of the series) unless noted
Procedure, shortened: as §2

[8] = tested on: HeLa; assay: as above; settings: Gynecologic cancer cell panel viability, ATPlite luminescence, 48 h; at 57.5 µM (top of the series) unless noted
Procedure, shortened: as §2

[9] = tested on: Hek293T; assay: as above; settings: Gynecologic cancer cell panel viability, ATPlite luminescence, 48 h, control line for the selectivity index; at 57.5 µM (top of the series) unless noted
Procedure, shortened: as §2

[10] = tested on: JEG-3; assay: as above; settings: Gynecologic cancer cell panel viability, ATPlite luminescence, 48 h; at 57.5 µM (top of the series) unless noted
Procedure, shortened: as §2

[11] = tested on: PA-1; assay: as above; settings: Gynecologic cancer cell panel viability, ATPlite luminescence, 48 h; at 57.5 µM (top of the series) unless noted
Procedure, shortened: as §2

[12] = tested on: SKOV3; assay: as above; settings: Gynecologic cancer cell panel viability, ATPlite luminescence, 48 h; at 57.5 µM (top of the series) unless noted
Procedure, shortened: as §2

[13] = tested on: Tov-21-G; assay: as above; settings: Gynecologic cancer cell panel viability, ATPlite luminescence, 48 h; at 57.5 µM (top of the series) unless noted
Procedure, shortened: as §2

[14] = tested on: Tov112D; assay: as above; settings: Gynecologic cancer cell panel viability, ATPlite luminescence, 48 h; at 57.5 µM (top of the series) unless noted
Procedure, shortened: as §2

[15] = tested on: OV90; assay: as above; settings: Gynecologic cancer cell panel viability, ATPlite luminescence, 48 h; at 57.5 µM (top of the series) unless noted
Procedure, shortened: as §2

[16] = tested on: MCC-26; assay: qHTS assay to identify novel small-molecules to repurpose for Merkel cell carcinoma treatment (AID 1296009); settings: MCC and control cell lines, CellTiter-Glo viability, 72 h; at 92.7 µM (top of the series); also: % is scaled to controls: 0 for no effect and ±100 for the full control effect; nearly all actives have a fitted effect of over 60% in size
Procedure, shortened: (§3)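 72 hr, 37 degree celsius; NPC 8-pt / MIPE 11-pt dose response; compound pinned in DMSO; CellTiter-Glo, 10 min RT, luminescence; normalized to no-cell and DMSO controls.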

[17] = tested on: MKL-1; assay: as above; settings: MCC and control cell lines, CellTiter-Glo viability, 72 h; at 92.7 µM (top of the series)
Procedure, shortened: as §3

[18] = tested on: MKL-2; assay: as above; settings: MCC and control cell lines, CellTiter-Glo viability, 72 h; at 92.7 µM (top of the series)
Procedure, shortened: as §3

[19] = tested on: UISO; assay: as above; settings: MCC and control cell lines, CellTiter-Glo viability, 72 h; at 92.7 µM (top of the series)
Procedure, shortened: as §3

[20] = tested on: WaGa; assay: as above; settings: MCC and control cell lines, CellTiter-Glo viability, 72 h; at 92.7 µM (top of the series)
Procedure, shortened: as §3

Cc1ccc([N+](=O)[O-])cc1[N+](=O)[O-]
inactive: max response [1] -5.43% and 0.0017%

CCOP(=O)(CC)OCC
inactive: max response [1] -0.0905%

CCC(C)(OO)OOC(C)(CC)OO (centres undefined)
inactive: max response [1] 7.19% and 2.23%

O=[N+]([O-])[O-].[NH4+]
inactive: Potency [2] | activity, negative = cell killing ([3]; at 45.9 µM (top of the series)) -15.4% | max response [1] 2.84%

CC(C)OP(=O)(F)OC(C)C
inactive: Potency [2] | activity, negative = cell killing ([3]; at 45.9 µM (top of the series)) -14.2%

C/C1=C2N=C(/C=C3N=C(/C(C)=C4\[N-][C@@](C)([C@@H]5N=C1[C@](C)(CCC(=O)NC[C@@H](C)OP(=O)([O-])O[C@H]1[C@@H](O)[C@@H](n6cnc7cc(C)c(C)cc76)O[C@@H]1CO)[C@H]5CC(N)=O)[C@@](C)(CC(N)=O)[C@@H]4CCC(N)=O)[C@@](C)(CC(N)=O)[C@@H]\3CCC(N)=O)C(C)(C)[C@@H]/2CCC(N)=O.[C-]#N.[Co+3]
inactive: activity change, negative = cytotoxicity [4] -16.2% | activity change, negative = cytotoxicity [5] -18.5% | activity change, negative = cytotoxicity [6] -26.7% | activity change, negative = cytotoxicity [7] -25.2% | activity change, negative = cytotoxicity [8] -11.4% | activity change, negative = cytotoxicity [9] -2.66% | activity change, negative = cytotoxicity [10] -21.5% | activity change, negative = cytotoxicity [11] -15.9% | activity change, negative = cytotoxicity [12] -34.3% | activity change, negative = cytotoxicity [13] 10.2% | activity change, negative = cytotoxicity [14] -1.01% | Potency [2] | activity, negative = cell killing ([3]; at 21.2 µM (top of the series)) -9.68%

O=[N+]([O-])OCC(CO[N+](=O)[O-])(CO[N+](=O)[O-])CO[N+](=O)[O-]
inactive: Potency [2] | activity, negative = cell killing ([3]; at 45.9 µM (top of the series)) -14.7%

CN(C)CCS
inactive: Potency [2] | activity, negative = cell killing ([3]; at 45.9 µM (top of the series)) -19%

C/C1=C2N=C(/C=C3N=C(/C(C)=C4\N=C(C(CC(N)=O)C4(C)CCC(=O)NCC(C)OP(=O)([O-])OC4C(CO)OC(n5cnc6cc(C)c(C)cc65)C4O)C4(C)N=C1C(CCC(N)=O)C4(C)CC(N)=O)C(CCC(N)=O)C\3(C)C)C(CCC(N)=O)C/2(C)CC(N)=O.[C-]#N.[Co] (centres undefined)
inactive: activity change, negative = cytotoxicity [4] 7.92% [at 25.3 µM] | activity change, negative = cytotoxicity [5] 6.77% [at 25.3 µM] | activity change, negative = cytotoxicity [6] 2.99% [at 25.3 µM] | activity change, negative = cytotoxicity [7] 6.01% [at 25.3 µM] | activity change, negative = cytotoxicity [8] -13.3% [at 25.3 µM] | activity change, negative = cytotoxicity [9] 5.81% [at 25.3 µM] | activity change, negative = cytotoxicity [10] 14.7% [at 25.3 µM] | activity change, negative = cytotoxicity [15] 0.902% [at 25.3 µM] | activity change, negative = cytotoxicity [11] 0.371% [at 25.3 µM] | activity change, negative = cytotoxicity [12] 36.6% [at 25.3 µM] | activity change, negative = cytotoxicity [13] -1.19% [at 25.3 µM] | activity change, negative = cytotoxicity [14] 4.94% [at 25.3 µM]

[NH4+].[O-][Cl+3]([O-])([O-])[O-]
inactive: max response [1] -4.2%

OCCSCCO
inactive: activity change, negative = cytotoxicity [4] -3.82% | activity change, negative = cytotoxicity [5] -1.09% | activity change, negative = cytotoxicity [6] 1.45% | activity change, negative = cytotoxicity [7] -4.39% | activity change, negative = cytotoxicity [8] 14.2% | activity change, negative = cytotoxicity [9] -6.3% | activity change, negative = cytotoxicity [10] -5.08% | activity change, negative = cytotoxicity [15] -10.3% | activity change, negative = cytotoxicity [12] 9.01% | activity change, negative = cytotoxicity [13] 1.29% | activity change, negative = cytotoxicity [14] 9.95% | Potency [2] | activity, negative = cell killing ([3]; at 45.9 µM (top of the series)) -15.8%

Cc1cccc([N+](=O)[O-])c1[N+](=O)[O-]
inactive: activity change, negative = cytotoxicity [16] 16% | activity change, negative = cytotoxicity [17] 1.62% | activity change, negative = cytotoxicity [18] 3.99% | activity change, negative = cytotoxicity [19] 13.2% | activity change, negative = cytotoxicity [20] -6.76% | activity change, negative = cytotoxicity [4] 0.498% | activity change, negative = cytotoxicity [5] -4.26% | activity change, negative = cytotoxicity [6] 0.961% | activity change, negative = cytotoxicity [7] 8.7% | activity change, negative = cytotoxicity [8] 16.3% | activity change, negative = cytotoxicity [9] -0.894% | activity change, negative = cytotoxicity [10] -22.4% | activity change, negative = cytotoxicity [15] -25.5% | activity change, negative = cytotoxicity [11] 4.55% | activity change, negative = cytotoxicity [13] 10.6% | activity change, negative = cytotoxicity [14] 11.2% | Potency [2] | activity, negative = cell killing ([3]; at 91.6 µM (top of the series)) -13.6% | max response [1] -4.56% and 1.5%

CC(C)N(CCCl)C(C)C
inactive: Potency [2] | activity, negative = cell killing ([3]; at 45.9 µM (top of the series)) -20.4%

CCOP(=S)(CC)Oc1cc(Cl)c(Cl)cc1Cl (centres undefined)
inactive: max response [1] 9.33%

O=[N+]([O-])c1cccc([N+](=O)[O-])c1
inactive: activity change, negative = cytotoxicity [4] 1.34% [at 116 µM] | activity change, negative = cytotoxicity [5] 5.36% [at 116 µM] | activity change, negative = cytotoxicity [6] -0.402% [at 116 µM] | activity change, negative = cytotoxicity [8] 1.81% [at 116 µM] | activity change, negative = cytotoxicity [10] -0.981% [at 116 µM] | activity change, negative = cytotoxicity [14] -8.55% [at 116 µM] | Potency [2] | activity, negative = cell killing ([3]; at 45.9 µM (top of the series)) -2.33% | activity, negative = cell killing ([3]; at 91.6 µM (top of the series)) -16.5% | max response [1] 0.3% and -9.11%

Cc1c([N+](=O)[O-])cccc1[N+](=O)[O-]
inactive: max response [1] -0.943% and -0.361%

CCOP(=O)(CC)Oc1ccc([N+](=O)[O-])cc1 (centres undefined)
inactive: activity change, negative = cytotoxicity [4] 4.46% | activity change, negative = cytotoxicity [5] 18.2% | activity change, negative = cytotoxicity [6] -3.74% | activity change, negative = cytotoxicity [8] -20.3% | activity change, negative = cytotoxicity [11] 3.12% | activity change, negative = cytotoxicity [12] -28.3% | activity change, negative = cytotoxicity [13] -27.9% | activity change, negative = cytotoxicity [14] -4.82% | Potency [2] | activity, negative = cell killing ([3]; at 45.9 µM (top of the series)) -22.6%
